miR-21 reporter = miR-21 reporter, rising signal; HeLa miR-21 FLuc reporter, luciferase, 48 h; Potency, µM (doses to about 38.3 µM); 340,000 tested, under 10 active; AID 2288; active = well fitted rising curve with a large enough effect; inconclusive = small, poorly fitted or top-dose-only effect; inactive = no such curve, though single readings can be large or run the other way;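 further: miR-21 action dims this reporter so a rising signal means less miR-21 action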
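Luminescence from a firefly luciferase reporter carrying a miR-21 binding site downstream, stably expressed under a CMV promoter in HeLa cells that make miR-21 endogenously, reports miRNA modulation after 48 h compound exposure up to approximately 40uM final.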
DT40 TDP1 CPT = DT40-hTDP1 cell growth loss with CPT. chicken DT40 Tdp1-/-;hTDP1 cells + 20 nM CPT, ATP luminescence, 48 h. Potency, µM (highest dose often 46.2 µM), actives largely listed as inhibitors. 12% of 420,000 active; further: nearly all actives have a fitted effect of over 55% in size
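Chicken DT40 Tdp1-/- cells complemented with human TDP1, 400 cells/well, exposed to compounds plus 20 nM camptothecin for at least 48 h at 37 C; viability read as ATP content by CellTiter-Glo luminescence.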
DT40 TDP1 no CPT = qHTS for Inhibitors of human tyrosyl-DNA phosphodiesterase 1 (TDP1): qHTS in cells in absence of CPT | Potency, µM (titrated, usually from 46.2 µM), usual class: inhibitors | 15% of 420,000 active | DT40 Tdp1-/- hTDP1 cells, no CPT, ATP luminescence, 48 h | AID 686978, 2013; further: nearly all actives have a fitted effect of over 55% in size
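Cells were dispensed at 400 per well, compounds added by pin tool, plates incubated ≥48 hr at 37 °C, then CellTiter-Glo added for 30 min at room temperature before luminescence reading. Line: DT40 Tdp1-/- complemented with hTDP1; camptothecin omitted.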
TDP1 block = TDP1 (human) enzyme inhibition; Q9NUW8; recombinant TDP1, AlphaScreen DNA substrate cleavage; Potency, µM (doses to about 130 µM), actives largely listed as inhibitors; 0.28% of 350,000 active; AID 485290; further: nearly all actives have a fitted effect of over 40% in size
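AlphaScreen read-out: signal falls as enzyme removes the 3' tyrosine-FITC from a 5'-biotinylated DNA oligo (15 nM, 5 min, RT). Enzyme was E. coli-made recombinant Tdp1 at 1 nM, exposed to compound for 15 min beforehand; beads 10 ug/ml, 10 min.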
uPA generation = inhibitors of cell surface uPA generation | cell surface uPA generation assay, qHTS | Potency, µM (highest dose often 38.3 µM), actives largely listed as inhibitors | 0.31% of 330,000 active; active means well fitted inhibition curve with a large enough effect; inconclusive means small, poorly fitted or top-dose-only effect; inactive means no such curve, though single readings can be large or run the other way; tested in mouse RAW 264.7 cells; further: nearly all actives have a fitted effect of over 55% in size
Large screens that a line does not name were inactive. In the library only some 16% were active in any assay of this set; here they are far more common. Unless noted, the call rests on the fitted dose curve; in most records, active means well fitted curve in the direction sought with a large enough effect; inconclusive means small, poorly fitted or top-dose-only effect, or another doubt; inactive means no such curve, though single readings can be large; an effect the other way counts as inactive or inconclusive.

CCOc1ccc(S(=O)(=O)NCc2ccc3c(c2)CCN3C(=O)c2ccc(C)cc2)cc1	DT40 TDP1 CPT 13µM, DT40 TDP1 no CPT 9.2µM (no result: uPA generation)
CC(C)c1ccc(S(=O)(=O)NCc2ccc3c(c2)CCN3C(=O)c2ccccc2)cc1	DT40 TDP1 CPT 23µM, DT40 TDP1 no CPT 15µM (no result: uPA generation)
COc1ccc(S(=O)(=O)NCc2ccc3c(c2)CCN3C(=O)c2ccc(C)cc2)cc1Cl	DT40 TDP1 CPT 21µM, DT40 TDP1 no CPT 16µM (no result: uPA generation)
Cc1cc(C)nc(N2CCCC(C(=O)Nc3ccc4c(c3)OCO4)C2)n1 (centres undefined)	none (no result: uPA generation)
CCOC(=O)C1=C(CN2CCC(C)CC2)NC(=O)NC1c1ccc(OC(C)C)cc1 (centres undefined)	DT40 TDP1 CPT 23µM, DT40 TDP1 no CPT inconclusive (no result: uPA generation)
CCCN1CCN(CC2=C(C(=O)OCC)C(c3ccc(OC(C)C)cc3)NC(=O)N2)CC1 (centres undefined)	DT40 TDP1 CPT inconclusive, DT40 TDP1 no CPT inconclusive (no result: uPA generation)
CCOC(=O)C1=C(CN2CCN(c3ccccc3F)CC2)NC(=O)NC1c1ccc(Cl)cc1 (centres undefined)	DT40 TDP1 CPT 26µM, DT40 TDP1 no CPT 16µM (no result: uPA generation)
CCCN1CCN(CC2=C(C(=O)OCC)C(c3ccc(Cl)cc3)NC(=O)N2)CC1 (centres undefined)	DT40 TDP1 CPT 26µM, DT40 TDP1 no CPT 26µM (no result: uPA generation)
CCN1CCCC1CNC(=O)COc1cc(=O)n(C)c2ccccc12 (centres undefined)	none (no result: uPA generation)
CCc1ccc(CNC(=O)C(=O)NCCc2ccc(OC)c(OC)c2)cc1	none (no result: miR-21 reporter, TDP1 block)
NC1=NC(c2ccccc2C(F)(F)F)N(c2ccc(F)c(Cl)c2)C(N)=N1 (centres undefined)	DT40 TDP1 CPT 21µM, DT40 TDP1 no CPT 4.1µM (no result: TDP1 block)
NC1=NC(c2ccc(Cl)cc2)N(c2ccc(S(N)(=O)=O)cc2)C(N)=N1 (centres undefined)	uPA generation inconclusive
Oc1ccccc1C=NCCCCCCN=Cc1ccccc1O	none
O=C(NC1(C(F)(F)F)C(=O)Nc2c1c(=O)[nH]c(=O)n2-c1ccccc1)c1ccccc1 (centres undefined)	DT40 TDP1 no CPT inconclusive (no result: uPA generation)
O=c1[nH]c(=O)n(-c2ccccc2)c2c1C(C(F)(F)F)(C(F)(F)F)N=C(C1CCCCC1)N2	DT40 TDP1 CPT inconclusive, DT40 TDP1 no CPT 23µM
CCC(CC)c1nnc(NC(=O)c2ccc3ccccc3n2)s1	DT40 TDP1 CPT inconclusive, DT40 TDP1 no CPT 11µM
COC(=O)[C@@H](Cc1ccccc1)NC(=O)CC[C@H]1O[C@@H](n2cc(C)c(=O)[nH]c2=O)C[C@@H]1O	none (no result: miR-21 reporter, TDP1 block)
Cc1ccc(C(=O)NC(C)c2ccc3c(c2)OCO3)s1 (centres undefined)	DT40 TDP1 CPT 13µM, DT40 TDP1 no CPT 16µM
Cc1ccc(C(=O)NC(C)c2ccc(C)c(C)c2)s1 (centres undefined)	DT40 TDP1 CPT inconclusive, DT40 TDP1 no CPT inconclusive (no result: miR-21 reporter, TDP1 block)
CCC1CCc2c(sc(NC(=O)C3c4ccccc4Oc4ccccc43)c2C(=O)OC)C1 (centres undefined)	DT40 TDP1 CPT inconclusive, DT40 TDP1 no CPT 10µM (no result: uPA generation)
CCOc1cccc(C2NC(=S)NC(C)=C2C(=O)Nc2ccccc2)c1 (centres undefined)	DT40 TDP1 CPT inconclusive, DT40 TDP1 no CPT 23µM
CCN(CC)S(=O)(=O)c1ccc(NC(=O)C2c3ccccc3Oc3ccccc32)cc1	DT40 TDP1 CPT 23µM, DT40 TDP1 no CPT 16µM
CCOC(=O)c1c(NC(=O)C2C3C=CC(C3)C2C(=O)O)sc2c1CCC(CC)C2 (centres undefined)	DT40 TDP1 CPT 16µM, DT40 TDP1 no CPT inconclusive
CCOc1cc(C2NC(=S)NC(C)=C2C(=O)Nc2ccc(OC)cc2)ccc1O (centres undefined)	DT40 TDP1 CPT inconclusive
CNS(=O)(=O)c1ccc(NC(=O)C2c3ccccc3Oc3ccccc32)cc1	none
COC(=O)C1=C(C)N(CCc2ccc(OC)cc2)C(=O)C1	none
Cc1ccc(NC(=O)Cn2cnc3sc(C(=O)NCc4ccco4)c(C)c3c2=O)cc1Cl	DT40 TDP1 CPT inconclusive, DT40 TDP1 no CPT inconclusive (no result: uPA generation)
Cc1cc(NS(=O)(=O)c2ccc(N3C(=O)C4C5C=CC(C5)C4C3=O)cc2)nc(C)n1 (centres undefined)	none
COC(=O)c1c(NC(=O)C2c3ccccc3Oc3ccccc32)sc(C)c1C	DT40 TDP1 CPT 23µM, DT40 TDP1 no CPT inconclusive

Screening results: PubChem, National Center for Advancing Translational Sciences (NCATS)
